Consider 1 compound from US10406238B2, “Ligand ionophore conjugates” (PURDUE RESEARCH FOUNDATION, priority 2015, dated 2019).

The assay concerns KB cells. Nature of the assay: Confocal microscopy for endosomal release in KB cells. The class given is cell-based, human. The settings on record: 200 nM 1 with 400 nM folate-Cy5 21-mer oligonucleotide 4, FIG. 4.

On to `CO[C@@H]1C[C@@H](C[C@H]2CC[C@H](C)C([C@@H](C)C(=O)OCCSSC[C@H](NC(=O)[C@H](CC(=O)O)NC(=O)[C@H](CC(=O)O)NC(=O)[C@H](CCCNC(=N)N)NC(=O)[C@H](CC(=O)O)NC(=O)CC[C@H](NC(=O)c3ccc(NCc4cnc5nc(N)[nH]c(=O)c5n4)cc3)C(=O)O)C(=O)O)O2)O[C@]2(O[C@@](C)(C3CC[C@@](C)([C@@H]4O[C@@H]([C@@H]5O[C@@](O)(CO)[C@H](C)C[C@@H]5C)C[C@@H]4C)O3)C[C@H]2C)[C@@H]1C` (stereo partly shown) [conjugate 1], for which the “time of swelling of smaller endosomes and release of Cy5 dye labeled oligonucleotide” value was in the range of 2 to 4 h.
